Reference: patent publication US4188387A, “Amino-aryl 1,24-triazines useful in the treatment of diverse pain” (priority 1977, dated 1980)
Where two headings read alike, the source gives them in different places.

Assay: in vivo
Conditions: mouse
Procedure: The toxicity study was carried out on the conventional mouse, weighing about 20 g.
The substances were administered orally and intraperitoneally.
The LD50 was calculated in accordance with the method of L. C. MILLER and M. L. TAINTER, Proc. Soc. exper.

Compound: CN(C)c1ccc(-c2nc(=O)n(C)nc2-c2ccc(N(C)C)cc2)cc1 [ST 729, 2-methyl 3-oxo 5,6-di(paradimethylamino-phenyl) as triazine]
- LD50 (ip, intraperitoneal, read-out: LD50 intraperitoneally): 200 mg/kg
- LD50 (oral, read-out: LD50 orally): > 1000 mg/kg
